Assay results reported in US20160318933A1, “FUSED PYRAZOLE DERIVATIVE” (SUMITOMO DAINIPPON PHARMA CO., LTD., priority 2013, published 2016).

The chains behind the UniProt entries cited, without tags or fusion partners.
UniProt P21917, whole entry: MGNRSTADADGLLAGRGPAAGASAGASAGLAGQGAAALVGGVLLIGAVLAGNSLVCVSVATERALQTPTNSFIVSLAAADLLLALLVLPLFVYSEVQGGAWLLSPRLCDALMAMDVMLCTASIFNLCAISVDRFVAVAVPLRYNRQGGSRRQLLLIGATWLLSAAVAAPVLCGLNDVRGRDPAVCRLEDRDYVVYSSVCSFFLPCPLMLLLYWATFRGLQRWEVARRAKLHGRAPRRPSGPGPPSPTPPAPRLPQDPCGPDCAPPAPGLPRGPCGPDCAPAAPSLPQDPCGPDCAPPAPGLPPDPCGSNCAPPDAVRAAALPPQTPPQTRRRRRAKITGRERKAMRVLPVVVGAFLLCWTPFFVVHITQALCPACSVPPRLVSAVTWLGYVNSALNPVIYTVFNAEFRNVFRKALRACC

Biological target: human brain-derived dopamine D4 receptor (Homo sapiens, UniProt P21917)
Test: Agonistic activity in G protein dependent pathway of dopamine D4 receptor (aequorin intracellular calcium luminescence, FDSS)
Format: cell-based
Details: CHO-K1 or HEK293 cells transfected with D4 receptor; for Maximal activity on D4 receptor (%): Emax, luminescent signal with 1 μM dopamine = 100%, without compound = 0%; for EC50: concentration required to achieve a 50% response of Emax

Row | SMILES | Maximal activity on D4 receptor (%) | EC50 [nM]
1 | Cc1ccc(CN2CCn3nc(-c4ccccn4)c(C)c3C2)cn1 | 64 | 28
2 | Cc1cccnc1-c1cc2n(n1)CCN(Cc1ccc(F)nc1)C2 | 61 | 85
3 | Cc1ccc(CN2CCn3nc(-c4ccccn4)c(Cl)c3C2)cc1 | 52 | 42
